Experimental findings from patent publication US8236762B2, “Peptide-cytotoxic conjugates” (IPSEN Pharma S.A.S., priority 2006, dated 2012) are described below.

A short description of data set [1]: Half-life determination in mouse plasma (LC-MS). Particulars: 37° C. Type of data set: in vitro ADME. The method, then:
(§1) Samples containing approximately 50 μg/ml up to and including approximately 500 μg/ml of test compound according to Formula IA or IB or II was added to 450 μl human or mouse plasma, vortexed briefly and incubated at 37° C. At various time intervals, e.g., 0, 0.5, 1, 2, 4, 6, 8, 24, 36 and 48 hours, 50 μl of the compound-plasma mixture was added to 150 μl acetonitrile in a microcentrifuge tube. The mixture was vortexed, centrifuged for 5 minutes at 10K RPM, and 135 μl of supernatant was transferred to an injection vial. The recovered supernatant was analyzed by using a liquid chromatography-mass spectrophotometer system (LC-MS) consisting of a Finnigan Deca XP® mass spectrometer with an ESI probe at the positive ion mode. HPLC separation was carried out on a Luna 3μ C8 (2)® 3×50 mm column with a gradient decreasing from 100% A to 80% B for 10 minutes at a flow rate of 0.25 ml/min. Buffer A was 0.1% acetic acid in water and buffer B was 0.1% acetic acid acetonitrile.

A short description of data set [2]: Half-life determination in human plasma (LC-MS). The following applies: 37° C. The data set is classed as in vitro ADME. The method, then: as §1

For “Camptothecin-rvD-Asp-Suc-(Doc)4-Aepa-D-Phe-c(Cys-Tyr-D-Trp-Lys-Abu-Cys)-Thr-NH2 Camptothecin-rvAsp-Suc-(Doc)4-Aepa-D-Phe-c(Cys-Tyr-D-Trp-Lys-Abu-Cys)-Thr-NH2 [Example 5A]”, the “Half-life in Mouse Plasma” value in data set [1] was 20.8 h. For the same substance, in data set [2], the “Half-life in Human Plasma” value was 10.8 h.

In the case of “Camptothecin-rvD-Asp-Suc-(Doc)4-Aepa-D-Phe-c(Cys-Tyr-D-Trp-Lys-Abu-Cys)-Thr-NH2 Camptothecin-rvAsp-Suc-(Doc)4-Aepa-D-Phe-c(Cys-Tyr-D-Trp-Lys-Abu-Cys)-Thr-NH2 [Example 5B]”, the “Half-life in Mouse Plasma” value in data set [1] stood at 27.5 h. For the same substance, the “Half-life in Human Plasma” value in data set [2] is 10.3 h.

As to “Camptothecin-rvD-Glu-Suc-(Doc)4-Aepa-D-Phe-c(Cys-Tyr-D-Trp-Lys-Abu-Cys)-Thr-NH2 and Camptothecin-rvGlu-Suc-(Doc)4-Aepa-D-Phe-c(Cys-Tyr-D-Trp-Lys-Abu-Cys)-Thr-NH2 [Example 6]”, the “Half-life in Mouse Plasma” value in data set [1] is 13.1 h. In data set [2], the “Half-life in Human Plasma” value came out at 10.7 h.
